A short description of the series: Cytotoxicity study, CellTitre-Blue viability assay. Conditions: cat.

Each structure is given as a SMILES string.

In general, CC50 refers to the concentration that lowers cell viability or growth by half. High values mean lower toxicity to the cells, low ones greater toxicity to the cells. As to `O=c1c(O)c(-c2ccc(O)c(O)c2)oc2cc(O)c(O)c(O)c12` [Quercetagetin, quercetagetin], the CC50 at 48 h was greater than 100 µM.

(Values after article PMC6116245 (Viruses, 2018).)
